# Reference: paper PMC10322781 (Archives of Toxicology, 2023)
# How the values were obtained:
# LS180 cells = type: in vitro ADME; settings: human
# Experimental: The UPLC-MS/MS system consisted of a triple stage quadrupole mass spectrometer (Waters Xevo TQ-S, Milford, MA, USA) and an Acquity Classic UPLC® (Waters). Mass spectrometric analysis was performed by selective reaction monitoring using positive electrospray ionization. […] For 25-[…], the mass transition m/z 749.34 → 399.17 was monitored, which constitutes the use of a product ion generated during electrospray ionization as precursor. Because of their considerable molecular size, rifamycins were chromatographically separated on a Waters Peptide BEH C18 Column (300 Å, 1.7 μm, 2.1 mm × 50 mm) to foster optimal mass transfer kinetics. The mobile phase was composed of H20/ACN (95/5, v/v) + 0.1% FA (eluent A) and ACN + 0.1% FA (eluent B). […] The total run time was 4 min, and the column was heated to 60 °C. The injection volume was set to 20 μL with a flow rate of 0.5 mL/min. A pellet of untreated LS180 cells (500,000 cells/sample) was used for calibration standards and QC standard. […] To determine intracellular rifamycin concentrations, measured compound concentrations were normalized to the total pellet volume. This was achieved by multiplying the measured mean cellular volume of a LS180 cell (CASY cell counter, Schärfe System, Reutlingen, Germany) by the mean cell number of four wells of an identically prepared and treated cell culture plate. […]
# [1] = design: method as in Zhang et al. [2008]; settings: 600 mg rifampicin; ref Zhang et al. [2008]; cited from earlier work
# [2] = repeated administration of 10 mg rifampicin to humans; ref Lutz et al., CPT [2018a]; cited from earlier work
smiles,measurement,setting,value
CO[C@H]1/C=C/O[C@@]2(C)Oc3c(C)c(O)c4c(O)c(c(/C=N/N5CCN(C)CC5)c(O)c4c3C2=O)NC(=O)/C(C)=C\C=C\[C@H](C)[C@H](O)[C@@H](C)[C@@H](O)[C@@H](C)[C@H](OC(C)=O)[C@@H]1C [Rifampicin],time to reach intracellular concentration equilibrium,LS180 cells,2 h
same,molar metabolite-to-parent ratio (25-O-deacetyl metabolite),LS180 cells; 10 µM,0.01
same,expected drug concentration in the gut lumen,[1],approx. 2.9 mM
same,AUC and Cmax of midazolam or dabigatran etexilate decreased to,[2],50%
